Experimental data published in patent US20030114375A1, “Method for treating cystic fibrosis” (The Government of the USA, Dept of Health and Human …, priority 1994, published 2003).

Chains of the proteins cited; added tags and fusions are not shown.
UniProt P30543, whole entry: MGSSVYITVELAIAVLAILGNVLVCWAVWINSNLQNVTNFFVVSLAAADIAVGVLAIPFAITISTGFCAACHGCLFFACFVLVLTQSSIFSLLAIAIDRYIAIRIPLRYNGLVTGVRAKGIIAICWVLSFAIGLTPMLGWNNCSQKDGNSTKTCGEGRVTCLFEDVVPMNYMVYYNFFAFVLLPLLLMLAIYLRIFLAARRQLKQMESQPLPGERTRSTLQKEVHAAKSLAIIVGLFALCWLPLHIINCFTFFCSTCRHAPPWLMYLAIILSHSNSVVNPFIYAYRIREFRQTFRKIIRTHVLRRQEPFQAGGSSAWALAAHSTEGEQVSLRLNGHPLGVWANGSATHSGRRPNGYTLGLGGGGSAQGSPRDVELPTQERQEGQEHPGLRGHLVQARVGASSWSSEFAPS
UniProt P25099, whole entry: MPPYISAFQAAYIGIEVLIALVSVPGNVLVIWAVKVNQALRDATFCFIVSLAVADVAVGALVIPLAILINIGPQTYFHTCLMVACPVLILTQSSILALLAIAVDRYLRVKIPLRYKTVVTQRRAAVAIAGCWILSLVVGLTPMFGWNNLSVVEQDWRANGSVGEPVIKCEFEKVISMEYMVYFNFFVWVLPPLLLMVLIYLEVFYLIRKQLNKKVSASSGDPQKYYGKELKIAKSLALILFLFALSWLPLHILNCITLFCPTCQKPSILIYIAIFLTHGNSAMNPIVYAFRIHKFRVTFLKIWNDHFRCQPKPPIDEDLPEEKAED

Experiments:
A2a-adenosine receptor = A2a-adenosine receptor (Rattus norvegicus, UniProt P30543); test: Inhibition of [3H]CGS 21680 binding to A2a receptors; conditions: read-out: Ki, μM(A2); rat striatal membranes, 5 nM [3H]CGS 21680
CFPAC cells = test: [36Cl]- efflux from CFPAC cells
A1-adenosine receptor = A1-adenosine receptor (Rattus norvegicus, UniProt P25099); test: Inhibition of [3H]N6-phenylisopropyladenosine binding to A1 receptors; conditions: read-out: Ki, μM(A1); rat cerebral cortex membranes, 1 nM [3H]PIA

Ki (A2a-adenosine receptor): 1.04 µM
Ki (A1-adenosine receptor): 0.03 µM
SMILES: Cn1c(=O)c2[nH]c(C3CCCCC3)nc2n(C)c1=O
Chloride efflux stimulation (summary words) (CFPAC cells): stimulate chloride efflux at μM or lesser concentrations
Conc. max. (nM): concentration at maximum impact upon chloride efflux (CFPAC cells): 3 nM
thresh (nM): minimum concentration required to detect an effect upon chloride efflux (CFPAC cells): 0.1 nM
